Laboratory results from article PMC2258317.

Assays:
Assay in all cases: pull-down; small scale: GST fusions (1 μM) on glutathione cellulose, or calmodulin sepharose (1 μM); recombinant calcineurin 1 μM; KCl 50 mM, HEPES 20 mM pH 7.4, EGTA 5 mM, NTA 5 mM, 1 μM free Ca2+ (in Fig. 3b also without added CaCl2); 2 h at 4 °C; anti-calcineurin western blot, densitometry
GST-CaBP1 = GST-CaBP1 (UniProt Q9NZU7)
GST-NCS-1 = GST-NCS-1 (UniProt P62166)
GST-NCS-1^E120Q = GST-NCS-1^E120Q (UniProt P62166)
GST-Neurocalcin-δ = GST-Neurocalcin-δ (UniProt P61601)
GST-Hippocalcin = GST-Hippocalcin (UniProt P84074)

- fold less calcineurin bound than by calmodulin (GST-CaBP1): 7 fold
- fold increase in binding with 1 μM free Ca2+ against without Ca2+ (GST-NCS-1): 13.7 fold
- fold less calcineurin bound than by calmodulin (GST-NCS-1): 7 fold
- fold increase in binding with 1 μM free Ca2+ against without Ca2+ (GST-NCS-1^E120Q): 2.2 fold
- fold less calcineurin bound than by calmodulin (GST-Neurocalcin-δ): 7 fold
- fold less calcineurin bound than by calmodulin (GST-Hippocalcin): 7 fold
Substance: Purified recombinant calcineurin (complex)
